In publication PMC7700221, “Antiproliferative Homoleptic and Heteroleptic Phosphino Silver(I) Complexes: Effect of Ligand Combination on Their Biological Mechanism of Action” (Molecules, 2020):

How the values were obtained:
[1] = test system: 2008 ovarian cancer cells
[2] = test system: MCF-7 breast cancer cells
[3] = test system: HCT-15 colon cancer cells
[4] = test system: BxPC3 pancreatic cancer cells
[5] = test system: A431 cervical carcinoma cells
[6] = test system: C13* cisplatin-resistant ovarian cancer cells
human TrxR1 = human TrxR1 (Homo sapiens, UniProt Q16881)
TrxR = conditions: in vitro; cited from earlier work

Substance	IC50 [1]	IC50 (A549 lung cancer cells)	IC50 [2]	IC50 [3]	IC50 [4]	IC50 [5]	IC50 [6]	IC50 (A375 melanoma cells)	IC50 (human TrxR1)	TrxR IC50 (TrxR)
[HB(pz)3]Ag(PPh3)	2.02 µM	2.1 µM	2.9 µM	2.1 µM	4.4 µM	1.5 µM	2.1 µM	2.2 µM	0.0033 µM	–
[HB(pz)3]Ag(DAPTA)	8.9 µM	7.5 µM	7.4 µM	7.6 µM	7.6 µM	6.7 µM	8.4 µM	9.2 µM	0.0035 µM	–
[HB(pz)3]Ag(PTA)	6.7 µM	5.1 µM	6.5 µM	8.5 µM	6.6 µM	10.3 µM	7.4 µM	8.1 µM	0.0028 µM	–
[Ag(PTA)4]PF6	–	–	–	–	–	–	–	–	–	nanomolar range
[Ag(PCN)2]BF4	3.1 µM	5.5 µM	4 µM	3.6 µM	3.1 µM	2.9 µM	4.1 µM	5.3 µM	0.0024 µM	–
[Ag(DAPTA)4]BF4	10.3 µM	8.5 µM	11.3 µM	16.2 µM	7.5 µM	11.2 µM	13.4 µM	9.1 µM	0.0072 µM	–
[Ag(PTA)4]BF4	9.23 µM	10.2 µM	11.5 µM	10.2 µM	13.2 µM	9.3 µM	10.9 µM	8.2 µM	0.0093 µM	–
AgNO3	–	–	–	–	–	–	–	–	0.0024 µM	–
[Ag(PPh3)4]BF4	4.2 µM	3 µM	5.1 µM	3.4 µM	3.1 µM	2 µM	6.1 µM	3.2 µM	0.0032 µM	–
[HB(pz)3]Ag(PTA-SO2)	6.3 µM	8.3 µM	5.1 µM	7.4 µM	5.1 µM	4.5 µM	5.6 µM	5.2 µM	0.0026 µM	–
[HB(pz)3]Ag(PCN)	7.8 µM	4.1 µM	5.1 µM	3.3 µM	5.6 µM	2.9 µM	6.5 µM	8.9 µM	0.0027 µM	–
[Ag(PTA-SO2)4]BF4	13.2 µM	13.2 µM	12.2 µM	17.7 µM	5.3 µM	4.1 µM	16.3 µM	6.3 µM	–	–
